Literature values in patent publication US20050244485A1, “Transdermal administration of hydrophilic drugs using a basic permeation enhancer composition” (priority 2003, published 2005).

Conditions: 0.1M aqueous solution, 25° C.; cited from earlier work

OCCN(CCO)CCO
pH of 0.1 M aqueous sol'n: 10.38
